The record followed here is patent US20230248642A1, “INJECTABLE HIGH-DRUG-LOADED NANOCOMPOSITE GELS AND PROCESS FOR MAKING THE SAME” (NUECOLOGY BIOMEDICAL INC., priority 2020, published 2023).

The subject of this assay is SKBR-3-derived tumor. Nature of the assay: In-vivo study of trastuzumab gel on SKBR3-derived breast tumor. Particulars: SC injection, BALB/c Nude mice with SKBR3 tumor. An excerpt:
The injectable nanocomposite gel carrying biosimilar drug, i.e., trastuzumab, with different dosing concentration designed based on clinical data per dosing, for a subsequent animal study. The breast tumor was cultivated by injection 1×10^7 SKBR3 cells to the right flank region of the mice, and the controls are given below: • Objects: Seven-week-old BALB/c Nude mice (Female) • Quantity: 5 groups, 4 mice for each group, totally 20. • Drugs: (1) PBS; (2) free-trastuzumab; (3) 1× trastuzumab gel; (4) 2× trastuzumab gel; (5) • 3× trastuzumab gel (for 3-week dose at one injection) • Dose: 25 mg/kg and 50 mg/kg, and 75 mg/kg, one SC injection per week • Injection frequency: Three doses on 2 weeks (Subcutaneous injection) • Injection Volume: 100 ul/20 g • Observation: Weight the mice and measure the tumor size twice a week. • Test period: 2-3 weeks, depending on size change of the breast tumor • Injection site: subcutaneous site on the left flank region of the mice • After continue monitoring on the size change of the tumor for on a weekly base, we found the growth of the tumor for the control group (PBS) is significant in the first week, from ˜100 mm^3 to nearly 1000 mm^3, and for free trastuzumab injection, from ˜100 mm^3 to 813 mm^3, and for 1× trastuzumab gel, from ˜100 mm^3 to 543 mm^3, and for 2× trastuzumab gel, from ˜100 mm^3 to nearly 410 mm^3. […]

Regarding trastuzumab [free trastuzumab], the tumor size was 813 mm^3 (first week, starting from ~100 mm^3) and around 1500 mm^3 (second week).
